Legend:
[1] = system: Human Colo-800 melanoma cells; experiment: Tumor cell killing assay (Colo-800 cells with MART1 T cells, xCELLigence cell index); type: cell-based; conditions: 46 hours after start of co-culture
Description: Human Colo-800 melanoma cells were seeded in a 96-well E-Plate (2×10^4 cells/well) for detection of cell adherence [=cell index (CI)], directly correlating with tumor cell viability and proliferation. […] Tumor cell index was quantified in five-minute intervals for a >90 hours period. Figure AA depicts the normalized cell index of the technical triplicates for each treatment group 46 hours after the start of co-culture. […] For details of the xCELLigence #104 assay, the reader is referred to J. Chou et al., Immunother. 2012 February; 35(2): 131-141, FIG. 6.

Chains of the proteins cited; added tags and fusions are not shown. Lines headed by an entry give the natural chain unless they say otherwise; changes in a name come on top.
UniProt P23743: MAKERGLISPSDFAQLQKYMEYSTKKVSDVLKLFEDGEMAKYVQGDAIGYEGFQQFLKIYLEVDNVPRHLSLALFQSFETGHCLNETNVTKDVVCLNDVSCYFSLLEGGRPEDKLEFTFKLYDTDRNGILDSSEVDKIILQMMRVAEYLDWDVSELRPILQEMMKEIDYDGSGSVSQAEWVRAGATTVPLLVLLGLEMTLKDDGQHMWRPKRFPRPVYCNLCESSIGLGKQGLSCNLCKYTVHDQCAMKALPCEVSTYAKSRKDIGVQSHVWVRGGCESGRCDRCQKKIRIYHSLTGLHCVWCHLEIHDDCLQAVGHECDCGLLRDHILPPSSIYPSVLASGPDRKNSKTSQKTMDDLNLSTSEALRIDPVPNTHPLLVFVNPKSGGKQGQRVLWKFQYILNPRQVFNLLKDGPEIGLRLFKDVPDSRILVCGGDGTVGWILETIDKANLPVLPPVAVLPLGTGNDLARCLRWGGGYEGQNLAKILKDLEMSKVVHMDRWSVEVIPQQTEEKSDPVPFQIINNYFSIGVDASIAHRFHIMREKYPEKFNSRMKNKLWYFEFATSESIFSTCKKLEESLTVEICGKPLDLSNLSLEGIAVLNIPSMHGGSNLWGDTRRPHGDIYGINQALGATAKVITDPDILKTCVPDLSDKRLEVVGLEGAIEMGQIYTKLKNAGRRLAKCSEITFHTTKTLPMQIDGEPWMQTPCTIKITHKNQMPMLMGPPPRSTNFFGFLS

human DGKalpha = biological target: T1, human DGKalpha (Homo sapiens, UniProt P23743); experiment: Human DGKalpha kinase activity inhibition assay (ADP-Glo); type: biochemical; conditions: IC50 DGKzeta versus IC50 DGKalpha
T1 construct: made in house; host or cells: baculovirus-infected Sf9 insect cells
Description: Human DGKalpha inhibitory activity of compounds of the present invention was quantified employing the human DGKalpha kinase activity assay as described in the following paragraphs. In essence, the enzyme activity was measured by quantification of the adenosine-di-phosphate (ADP) generated as a co-product of the enzyme reaction via the “ADP-Glo™ Kinase Assay” kit from the company Promega. This detection system works as follows: In a first step the ATP not consumed in the kinase reaction is quantitatively converted to cAMP employing an adenylate cyclase (“ADP-Glo-reagent”), then the adenylate cyclase is stopped and the ADP generated in the kinase reaction converted to ATP, which subsequently generates in a luciferase-based reaction a glow-luminescence signal (“Kinase Detection Reagent”).
C-terminally FLAG-tagged, recombinant full-length human DGKalpha (expressed in baculovirus infected insect cells, purified using anti-Flag pulldown and size exclusion chromatography as described below, DGKa_hu_1) was used as enzyme. As substrate for the kinase 1,2-dioleoyl-sn-glycerol, reconstituted in octyl-β-D-glucopyranoside micelles, was used. […] Then 35 volumes of 50 mM MOPS buffer (pH 7.4) were added to yield a solution of 0.28 mM 1,2 dioleoyl-sn-glycerol and 200 mM octyl-β-D-glucopyranoside, which was aliquoted, flash-frozen in liquid nitrogen, and stored at −20° C. until use. […]

selectivity over DGKzeta (human DGKalpha): over 100 fold
SMILES: Cc1ccc2oc(C3CCN(c4c(C(N)=O)c(=O)n(C)c5ccc(F)cc45)CC3)nc2c1 [DGKalpha inhibitor A, 6-fluoro-1-methyl-4-[4-(5-methyl-1,3-benzoxazol-2-yl)piperidin-1-yl]-2-oxo-1,2-dihydroquinoline-3-carboxamide]
tumor cell index (TCI) ([1]; 1 nM (combination: 1 nM each)): neither DGKalpha inhibitor A nor DGKzeta inhibitor A′ exercise a major effect
tumor cell index (TCI) ([1]; 50 nM): only moderate
tumor cell index (TCI) ([1]; monotherapy 1 nM, 10 nM, 50 nM): dose-dependent reduction of the TCI

— US20260232652A1, “COMBINATIONS OF DGK (DIACYLGLYCEROL KINASE) INHIBITORS” (priority 2023, published 2026)
